For some assays here: This list holds what a sample rich in strong results left over. The rule behind the calls is not given here. This is a selection; strong and weak results do not stand in their true shares.

Sequences of proteins named here, by UniProt entry; tags and fusion partners are left off. A change or cut given only in a name is not applied to a line headed by its entry.
UniProt P08069, whole entry, looked up: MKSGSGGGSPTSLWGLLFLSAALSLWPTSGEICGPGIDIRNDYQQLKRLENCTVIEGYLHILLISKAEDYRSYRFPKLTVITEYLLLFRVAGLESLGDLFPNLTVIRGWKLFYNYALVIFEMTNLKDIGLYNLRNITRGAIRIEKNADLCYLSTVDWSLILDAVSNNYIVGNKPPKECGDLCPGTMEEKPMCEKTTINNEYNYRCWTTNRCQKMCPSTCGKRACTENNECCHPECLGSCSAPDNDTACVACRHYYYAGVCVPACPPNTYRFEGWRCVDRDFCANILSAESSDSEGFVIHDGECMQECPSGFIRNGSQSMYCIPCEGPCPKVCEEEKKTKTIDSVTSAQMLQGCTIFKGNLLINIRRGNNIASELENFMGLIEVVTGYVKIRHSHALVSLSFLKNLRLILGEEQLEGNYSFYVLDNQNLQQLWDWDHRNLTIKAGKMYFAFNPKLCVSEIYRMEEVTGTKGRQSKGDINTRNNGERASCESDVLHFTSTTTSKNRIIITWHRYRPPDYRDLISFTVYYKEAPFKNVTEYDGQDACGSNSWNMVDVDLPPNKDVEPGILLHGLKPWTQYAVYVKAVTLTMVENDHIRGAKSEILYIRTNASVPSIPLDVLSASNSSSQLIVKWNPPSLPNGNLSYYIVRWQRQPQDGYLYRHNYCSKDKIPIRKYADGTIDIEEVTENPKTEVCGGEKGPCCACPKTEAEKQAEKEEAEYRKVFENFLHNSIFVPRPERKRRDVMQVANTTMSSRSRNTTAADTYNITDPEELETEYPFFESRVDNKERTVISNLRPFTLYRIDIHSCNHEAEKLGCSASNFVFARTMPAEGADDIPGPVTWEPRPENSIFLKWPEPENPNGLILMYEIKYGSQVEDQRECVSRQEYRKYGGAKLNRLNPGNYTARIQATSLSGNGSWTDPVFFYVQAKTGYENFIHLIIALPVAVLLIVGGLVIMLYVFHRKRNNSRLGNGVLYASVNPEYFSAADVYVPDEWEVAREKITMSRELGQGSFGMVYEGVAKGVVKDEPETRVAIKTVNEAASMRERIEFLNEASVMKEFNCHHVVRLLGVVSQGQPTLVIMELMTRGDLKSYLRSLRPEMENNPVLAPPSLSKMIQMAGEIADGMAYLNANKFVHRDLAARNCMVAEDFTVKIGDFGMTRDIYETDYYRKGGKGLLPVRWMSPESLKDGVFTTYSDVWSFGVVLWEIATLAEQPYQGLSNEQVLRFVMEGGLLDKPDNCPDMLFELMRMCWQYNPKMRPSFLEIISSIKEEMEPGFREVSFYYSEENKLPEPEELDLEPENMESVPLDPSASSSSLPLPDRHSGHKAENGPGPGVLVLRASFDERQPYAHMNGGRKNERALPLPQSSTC
UniProt P42685: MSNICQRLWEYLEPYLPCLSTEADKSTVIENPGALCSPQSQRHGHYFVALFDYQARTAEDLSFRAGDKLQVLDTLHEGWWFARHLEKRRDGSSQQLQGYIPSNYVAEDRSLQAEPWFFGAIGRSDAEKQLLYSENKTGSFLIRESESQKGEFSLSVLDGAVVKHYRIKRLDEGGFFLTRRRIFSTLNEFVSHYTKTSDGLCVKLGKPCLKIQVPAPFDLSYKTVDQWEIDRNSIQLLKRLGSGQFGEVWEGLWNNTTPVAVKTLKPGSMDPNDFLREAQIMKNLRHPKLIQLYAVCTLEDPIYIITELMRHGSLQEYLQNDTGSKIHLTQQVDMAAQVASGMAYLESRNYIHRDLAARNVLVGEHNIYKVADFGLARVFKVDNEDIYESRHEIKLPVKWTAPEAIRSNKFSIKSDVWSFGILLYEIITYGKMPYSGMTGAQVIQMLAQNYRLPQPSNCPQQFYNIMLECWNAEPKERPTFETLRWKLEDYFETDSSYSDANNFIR
UniProt Q9H4B4: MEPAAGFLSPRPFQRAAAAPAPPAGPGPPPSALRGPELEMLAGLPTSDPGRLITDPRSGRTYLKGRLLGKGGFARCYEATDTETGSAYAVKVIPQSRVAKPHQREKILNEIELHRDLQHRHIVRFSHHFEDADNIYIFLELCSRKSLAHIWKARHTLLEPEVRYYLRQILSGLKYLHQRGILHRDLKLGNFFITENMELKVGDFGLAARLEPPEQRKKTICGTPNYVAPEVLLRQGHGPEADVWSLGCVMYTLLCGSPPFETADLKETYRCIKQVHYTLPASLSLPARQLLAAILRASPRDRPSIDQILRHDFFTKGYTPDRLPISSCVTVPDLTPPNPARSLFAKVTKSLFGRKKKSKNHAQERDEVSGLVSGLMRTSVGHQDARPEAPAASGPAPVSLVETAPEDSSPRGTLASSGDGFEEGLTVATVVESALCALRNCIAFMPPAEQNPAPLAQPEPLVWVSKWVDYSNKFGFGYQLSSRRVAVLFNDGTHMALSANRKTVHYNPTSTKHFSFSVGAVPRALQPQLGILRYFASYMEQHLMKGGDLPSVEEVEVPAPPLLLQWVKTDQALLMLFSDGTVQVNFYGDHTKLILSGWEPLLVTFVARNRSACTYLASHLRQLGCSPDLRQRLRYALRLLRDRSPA
UniProt O75116: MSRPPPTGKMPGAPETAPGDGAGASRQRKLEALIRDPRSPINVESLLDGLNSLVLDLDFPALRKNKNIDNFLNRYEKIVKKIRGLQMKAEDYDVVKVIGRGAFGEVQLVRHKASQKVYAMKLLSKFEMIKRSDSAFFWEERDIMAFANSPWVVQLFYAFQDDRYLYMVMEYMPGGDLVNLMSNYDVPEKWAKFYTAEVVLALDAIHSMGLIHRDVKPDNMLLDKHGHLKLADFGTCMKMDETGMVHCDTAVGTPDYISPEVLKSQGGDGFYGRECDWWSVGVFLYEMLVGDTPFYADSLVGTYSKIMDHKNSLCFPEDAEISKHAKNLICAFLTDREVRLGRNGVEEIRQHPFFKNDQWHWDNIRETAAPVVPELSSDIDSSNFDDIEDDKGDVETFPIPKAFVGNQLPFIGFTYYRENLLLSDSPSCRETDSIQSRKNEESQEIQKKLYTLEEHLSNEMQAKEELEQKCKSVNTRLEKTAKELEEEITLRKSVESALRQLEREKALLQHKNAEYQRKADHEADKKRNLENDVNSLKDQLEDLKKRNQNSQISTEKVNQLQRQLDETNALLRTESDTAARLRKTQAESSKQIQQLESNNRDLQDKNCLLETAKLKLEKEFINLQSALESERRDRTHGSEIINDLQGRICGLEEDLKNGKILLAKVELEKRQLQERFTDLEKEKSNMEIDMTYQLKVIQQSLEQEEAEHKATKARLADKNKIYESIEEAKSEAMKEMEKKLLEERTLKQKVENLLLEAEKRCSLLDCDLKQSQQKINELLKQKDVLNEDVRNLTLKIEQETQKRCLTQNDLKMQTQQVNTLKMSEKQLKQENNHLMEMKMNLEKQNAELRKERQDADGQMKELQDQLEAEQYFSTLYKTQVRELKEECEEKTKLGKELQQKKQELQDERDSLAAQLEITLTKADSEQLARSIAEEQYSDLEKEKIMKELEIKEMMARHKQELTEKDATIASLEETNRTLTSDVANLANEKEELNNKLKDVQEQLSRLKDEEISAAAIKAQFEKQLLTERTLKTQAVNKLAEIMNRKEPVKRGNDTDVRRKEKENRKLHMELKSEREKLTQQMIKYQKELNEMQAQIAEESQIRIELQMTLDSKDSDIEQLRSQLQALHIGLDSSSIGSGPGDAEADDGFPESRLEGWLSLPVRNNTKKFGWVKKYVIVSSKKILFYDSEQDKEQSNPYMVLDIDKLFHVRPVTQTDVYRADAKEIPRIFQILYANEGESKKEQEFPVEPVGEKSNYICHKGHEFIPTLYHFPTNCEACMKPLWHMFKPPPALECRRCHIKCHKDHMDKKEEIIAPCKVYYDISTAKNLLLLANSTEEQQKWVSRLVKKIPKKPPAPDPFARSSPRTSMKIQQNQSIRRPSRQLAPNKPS

This note sets out measurements from ChEMBL document CHEMBL2218924, “A broad activity screen in support of a chemogenomic map for kinase signalling research and drug discovery” (Biochem J, 2013).

Assay [1] concerns the target Insulin-like growth factor 1 receptor (Homo sapiens) (UniProt P08069). Conditions: at 10 µM.
The target of assay [2] is T1, Protein kinase C iota type (Homo sapiens) (UniProt P41743).
T1 sequence (whole entry): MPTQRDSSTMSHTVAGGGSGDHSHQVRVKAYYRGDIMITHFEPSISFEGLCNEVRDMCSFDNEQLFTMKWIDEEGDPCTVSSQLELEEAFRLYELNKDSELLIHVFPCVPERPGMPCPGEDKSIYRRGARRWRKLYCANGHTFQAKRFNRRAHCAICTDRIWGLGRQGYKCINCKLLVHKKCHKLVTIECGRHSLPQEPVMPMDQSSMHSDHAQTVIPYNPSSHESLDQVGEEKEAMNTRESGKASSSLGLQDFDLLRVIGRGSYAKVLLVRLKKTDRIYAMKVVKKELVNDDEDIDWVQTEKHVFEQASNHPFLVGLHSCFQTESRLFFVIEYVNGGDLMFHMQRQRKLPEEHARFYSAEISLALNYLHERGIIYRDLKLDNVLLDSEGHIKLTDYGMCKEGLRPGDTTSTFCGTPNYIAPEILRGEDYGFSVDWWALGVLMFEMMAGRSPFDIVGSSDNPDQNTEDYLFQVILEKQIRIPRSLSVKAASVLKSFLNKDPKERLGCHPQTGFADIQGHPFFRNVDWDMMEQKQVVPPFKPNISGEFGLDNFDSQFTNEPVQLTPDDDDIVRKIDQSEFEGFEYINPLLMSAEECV
Particulars: at 1 µM.

Assay [3] concerns the target T1, Protein kinase C iota type (Homo sapiens). Particulars: at 10 µM.
The target of assay [4] is T2, Serine/threonine-protein kinase D1 (Homo sapiens) (UniProt Q15139).
T2 sequence (whole entry): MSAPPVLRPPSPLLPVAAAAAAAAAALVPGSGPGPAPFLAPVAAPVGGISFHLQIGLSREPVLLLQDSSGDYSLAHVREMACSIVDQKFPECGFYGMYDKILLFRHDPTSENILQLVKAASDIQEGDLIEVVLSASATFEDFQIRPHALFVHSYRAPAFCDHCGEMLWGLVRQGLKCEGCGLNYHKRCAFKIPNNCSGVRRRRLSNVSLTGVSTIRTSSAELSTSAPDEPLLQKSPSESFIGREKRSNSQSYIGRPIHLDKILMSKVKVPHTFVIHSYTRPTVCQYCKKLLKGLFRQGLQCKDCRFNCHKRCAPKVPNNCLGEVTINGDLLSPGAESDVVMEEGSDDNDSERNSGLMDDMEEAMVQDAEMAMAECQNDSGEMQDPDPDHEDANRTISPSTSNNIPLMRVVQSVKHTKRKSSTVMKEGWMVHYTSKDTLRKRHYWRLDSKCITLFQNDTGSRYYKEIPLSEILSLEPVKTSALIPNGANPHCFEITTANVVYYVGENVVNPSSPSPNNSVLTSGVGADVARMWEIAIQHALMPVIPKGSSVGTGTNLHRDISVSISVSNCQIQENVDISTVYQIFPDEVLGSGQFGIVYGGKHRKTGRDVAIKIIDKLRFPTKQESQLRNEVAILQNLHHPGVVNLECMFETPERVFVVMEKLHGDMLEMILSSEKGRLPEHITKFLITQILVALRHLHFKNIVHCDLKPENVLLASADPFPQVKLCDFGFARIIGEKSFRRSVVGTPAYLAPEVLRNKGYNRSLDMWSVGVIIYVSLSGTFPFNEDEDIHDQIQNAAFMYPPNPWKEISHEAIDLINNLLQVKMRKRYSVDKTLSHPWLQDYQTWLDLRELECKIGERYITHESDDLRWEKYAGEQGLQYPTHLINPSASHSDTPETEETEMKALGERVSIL
Conditions: at 1 µM.

The target in assay [5] is T3, Serine/threonine-protein kinase D2 (Homo sapiens) (UniProt Q9BZL6).
T3 sequence (whole entry): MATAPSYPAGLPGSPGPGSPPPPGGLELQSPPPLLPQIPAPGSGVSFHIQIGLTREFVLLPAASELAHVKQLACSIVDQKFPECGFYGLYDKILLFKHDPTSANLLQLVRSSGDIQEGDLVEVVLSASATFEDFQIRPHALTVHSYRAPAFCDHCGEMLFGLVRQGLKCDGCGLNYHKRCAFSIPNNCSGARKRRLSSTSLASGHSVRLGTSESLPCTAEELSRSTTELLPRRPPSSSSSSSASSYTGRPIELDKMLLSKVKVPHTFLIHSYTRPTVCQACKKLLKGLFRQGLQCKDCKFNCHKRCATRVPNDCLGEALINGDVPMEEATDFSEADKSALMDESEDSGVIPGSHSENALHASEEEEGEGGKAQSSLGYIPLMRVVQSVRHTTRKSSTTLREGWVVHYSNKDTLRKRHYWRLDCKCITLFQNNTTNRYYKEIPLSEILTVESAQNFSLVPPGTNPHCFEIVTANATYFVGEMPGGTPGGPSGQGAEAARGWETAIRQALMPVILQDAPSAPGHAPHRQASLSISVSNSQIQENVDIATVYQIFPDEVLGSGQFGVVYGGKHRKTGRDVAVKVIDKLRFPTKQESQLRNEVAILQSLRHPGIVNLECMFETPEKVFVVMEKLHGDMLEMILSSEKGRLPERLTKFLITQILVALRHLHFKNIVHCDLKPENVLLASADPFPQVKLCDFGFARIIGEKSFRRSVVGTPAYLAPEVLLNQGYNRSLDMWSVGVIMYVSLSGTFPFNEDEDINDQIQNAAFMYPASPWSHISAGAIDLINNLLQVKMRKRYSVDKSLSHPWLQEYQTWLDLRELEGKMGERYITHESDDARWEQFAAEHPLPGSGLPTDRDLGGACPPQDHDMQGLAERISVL
Particulars: at 1 µM.

For assay [6], the target named is T3, Serine/threonine-protein kinase D2 (Homo sapiens). Particulars: at 10 µM.
The target in assay [7] is T4, MAP kinase-activated protein kinase 5 (Homo sapiens) (UniProt Q8IW41).
T4 sequence (whole entry): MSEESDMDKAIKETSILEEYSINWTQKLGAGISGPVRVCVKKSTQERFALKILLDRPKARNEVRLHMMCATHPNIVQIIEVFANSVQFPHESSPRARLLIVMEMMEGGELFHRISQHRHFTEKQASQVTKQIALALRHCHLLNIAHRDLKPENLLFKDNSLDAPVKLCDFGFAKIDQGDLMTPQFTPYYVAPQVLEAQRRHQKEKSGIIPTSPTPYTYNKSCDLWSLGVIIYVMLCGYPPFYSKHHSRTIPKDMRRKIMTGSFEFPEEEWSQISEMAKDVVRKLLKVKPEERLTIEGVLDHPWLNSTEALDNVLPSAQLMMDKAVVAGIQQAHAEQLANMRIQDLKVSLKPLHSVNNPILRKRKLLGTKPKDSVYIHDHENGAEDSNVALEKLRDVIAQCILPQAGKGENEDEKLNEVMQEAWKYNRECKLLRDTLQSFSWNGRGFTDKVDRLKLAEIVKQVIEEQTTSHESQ
Conditions: at 1 µM.

In assay [8] the target is Tyrosine-protein kinase FRK (Homo sapiens) (UniProt P42685). Conditions: at 10 µM.
Assay [9] addresses T5, Phosphorylase b kinase gamma catalytic chain, liver/testis isoform (Homo sapiens) (UniProt P15735).
T5 sequence (whole entry): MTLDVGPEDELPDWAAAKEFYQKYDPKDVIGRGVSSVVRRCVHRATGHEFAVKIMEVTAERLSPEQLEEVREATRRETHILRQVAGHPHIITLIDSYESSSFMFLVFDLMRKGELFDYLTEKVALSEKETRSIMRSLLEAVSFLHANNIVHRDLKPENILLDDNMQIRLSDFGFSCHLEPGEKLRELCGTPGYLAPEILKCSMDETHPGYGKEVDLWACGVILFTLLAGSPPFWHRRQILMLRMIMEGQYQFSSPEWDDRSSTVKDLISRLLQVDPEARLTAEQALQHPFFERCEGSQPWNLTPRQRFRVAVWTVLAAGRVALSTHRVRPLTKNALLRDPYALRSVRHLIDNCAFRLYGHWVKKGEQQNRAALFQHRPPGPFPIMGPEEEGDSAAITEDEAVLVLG
Particulars: at 10 µM.

In assay [10] the target is Serine/threonine-protein kinase pim-3 (Homo sapiens) (UniProt Q86V86). Particulars: at 1 µM.
Assay [11] addresses Serine/threonine-protein kinase PLK3 (Homo sapiens) (UniProt Q9H4B4). Conditions: at 1 µM.
Assay [12] shares this target. Particulars: at 10 µM.
Assay [13] addresses Rho-associated protein kinase 2 (Homo sapiens) (UniProt O75116). Conditions: at 1 µM.
Assay [14] addresses T6, Macrophage-stimulating protein receptor (Homo sapiens) (UniProt Q04912).
T6 sequence (whole entry): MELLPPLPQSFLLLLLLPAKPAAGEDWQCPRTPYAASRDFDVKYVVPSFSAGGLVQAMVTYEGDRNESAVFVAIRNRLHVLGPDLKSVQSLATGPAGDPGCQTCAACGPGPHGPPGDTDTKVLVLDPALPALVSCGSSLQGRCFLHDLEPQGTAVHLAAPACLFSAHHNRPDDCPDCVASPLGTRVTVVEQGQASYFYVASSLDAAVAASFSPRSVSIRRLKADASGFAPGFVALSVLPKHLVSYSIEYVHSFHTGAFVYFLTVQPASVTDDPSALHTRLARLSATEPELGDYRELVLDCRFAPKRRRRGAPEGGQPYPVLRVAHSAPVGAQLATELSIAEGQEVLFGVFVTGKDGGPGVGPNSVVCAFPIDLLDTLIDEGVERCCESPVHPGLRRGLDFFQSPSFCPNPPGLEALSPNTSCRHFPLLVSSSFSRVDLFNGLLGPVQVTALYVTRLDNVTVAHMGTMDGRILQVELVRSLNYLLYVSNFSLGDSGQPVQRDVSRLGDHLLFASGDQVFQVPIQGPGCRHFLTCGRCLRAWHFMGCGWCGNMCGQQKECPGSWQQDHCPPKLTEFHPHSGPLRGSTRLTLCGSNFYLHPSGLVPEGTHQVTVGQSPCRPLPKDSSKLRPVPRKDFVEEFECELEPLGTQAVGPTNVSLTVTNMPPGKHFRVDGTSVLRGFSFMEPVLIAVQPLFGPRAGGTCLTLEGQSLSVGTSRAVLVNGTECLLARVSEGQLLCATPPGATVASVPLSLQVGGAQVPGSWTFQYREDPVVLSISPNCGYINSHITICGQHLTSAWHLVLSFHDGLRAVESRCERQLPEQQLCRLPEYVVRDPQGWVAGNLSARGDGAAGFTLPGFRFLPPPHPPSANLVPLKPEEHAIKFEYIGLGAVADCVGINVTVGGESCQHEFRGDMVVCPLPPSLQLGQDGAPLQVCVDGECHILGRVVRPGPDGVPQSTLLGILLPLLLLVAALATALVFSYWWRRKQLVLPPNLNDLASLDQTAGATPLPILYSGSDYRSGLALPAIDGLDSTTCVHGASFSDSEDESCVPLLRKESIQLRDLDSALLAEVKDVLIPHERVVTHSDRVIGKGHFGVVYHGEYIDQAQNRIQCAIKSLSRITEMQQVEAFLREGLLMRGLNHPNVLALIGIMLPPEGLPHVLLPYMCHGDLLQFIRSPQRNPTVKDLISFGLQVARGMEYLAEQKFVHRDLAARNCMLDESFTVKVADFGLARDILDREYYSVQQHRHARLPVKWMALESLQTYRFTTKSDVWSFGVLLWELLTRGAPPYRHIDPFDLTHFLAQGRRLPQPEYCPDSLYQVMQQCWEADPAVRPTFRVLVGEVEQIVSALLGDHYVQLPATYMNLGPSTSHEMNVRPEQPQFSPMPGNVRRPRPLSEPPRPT
Particulars: at 1 µM.

`O=C1NC(=O)C(c2cn(CCCn3ccnc3)c3ccccc23)=C1Nc1ccccc1`: the residual activity in [1] was 88%; in assay [2], inactive: 86%; in assay [3], 87%; in assay [4], 91%; in [5] it was 102%; in assay [6], 96%. The residual activity in [7] is 83%; in assay [8], 91%; in [9], 93%; in [10], 89%; in assay [11], inactive: 84%; in [12], 96%. Further, the residual activity was 99% in [13] and 89% in assay [14].
